PMC10449848, “Structural basis of lipid-droplet localization of 17-beta-hydroxysteroid dehydrogenase 13” (Nature Communications, 2023)

The chains behind the UniProt entries cited, without tags or fusion partners. Residues count along the entry.
UniProt Q7Z5P4, 2-300 limits assumed: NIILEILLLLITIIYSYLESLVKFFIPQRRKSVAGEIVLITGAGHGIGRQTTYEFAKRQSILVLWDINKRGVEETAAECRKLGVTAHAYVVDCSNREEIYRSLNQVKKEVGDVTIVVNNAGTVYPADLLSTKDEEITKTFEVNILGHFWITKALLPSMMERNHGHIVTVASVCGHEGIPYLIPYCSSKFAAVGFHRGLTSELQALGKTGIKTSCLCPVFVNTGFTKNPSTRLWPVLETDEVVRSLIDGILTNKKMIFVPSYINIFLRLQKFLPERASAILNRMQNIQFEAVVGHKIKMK

Biological target: human HSD17B13 (Homo sapiens, UniProt Q7Z5P4)
Assay: Thermal shift assay (static light scattering, Tagg), human HSD17B13
Format: binding
Conditions: for Tagg, individual measurements: 10.4 µM protein; for deltaTagg: 500 uM NAD, Tagg(compound + NAD+) - Tagg(buffer + NAD+); for dTagg: no NAD, vs buffer

| Structure (SMILES) | Tagg, individual measurements (100 µM ligand + 500 µM NAD+) | Tagg, individual measurements (100 µM ligand, buffer without NAD+) | deltaTagg (100 µM ligand) | dTagg (100 µM ligand) |
| --- | --- | --- | --- | --- |
| O=C(NC[C@]1(O)CC[C@H](CCOc2ccccc2)CC1)c1ccc(O)c(F)c1 (relative stereo) | 53.5 °C (2×) and 53.7 °C and 52.7 °C | 40.1 °C and 40.3 °C and 41.8 °C (2×) | 11.7 | 0.9333 |
| Cc1ccccc1OC[C@H]1CC[C@@](O)(CNC(=O)c2ccc(O)cc2)CC1 (relative stereo) | – | – | 5.8 | 0.5833 |
| O=C(NC[C@]1(O)CC[C@H](COCc2ccccc2)CC1)c1ccc(O)c(F)c1 (relative stereo) | 52.9 °C (2×) and 52 °C and 52.8 °C | – | 11 | 1.858 |

Where “and” joins values, the source holds several entries; their conditions need not be identical. Equal entries are not always repeated.
